In test [1] the test system is rats given endotoxin. Put plainly: 125I-fibrinogen in the blood after endotoxin (experimental endotoxaemia). As to conditions: compared to sham operated group I; group III (tranexamic acid 2 × 50 mg/kg iv), group VII (Hep low 25 U/kg + 25 U/kg/h). The format is in vivo, Sprague-Dawley rats. The text has this: The body temperature was maintained at.
Adjustment for multiplicity was done using Scheffe.

For test [2], the system named is rats given endotoxin. As to conditions: 5 h after endotoxin.

Take `NC[C@H]1CC[C@H](C(=O)O)CC1` [tranexamic acid]: the “fibrinogen in blood 5 h after endotoxin” value in the test with rats given endotoxin [1] is “significantly decreased”. For the same molecule, the “fibrin accumulation in the lung and the kidneys” value in the test on rats given endotoxin [2] is given as “no such accumulation”. In the test on rats given endotoxin [2] (compared to sham operated rats (group I), group III), the “fibrin accumulation in the spleen” value was “significant increase”.

Source of the values: patent publication US7449446B2, “Combination product comprising melagatran and dexamethasone” (AstraZeneca AB, priority 2001, dated 2008).
